This is an account of results in patent US8008506B2, “Indazole compounds” (priority 2008, dated 2011).

The chains behind the UniProt entries cited, without tags or fusion partners.
UniProt P35348, whole entry: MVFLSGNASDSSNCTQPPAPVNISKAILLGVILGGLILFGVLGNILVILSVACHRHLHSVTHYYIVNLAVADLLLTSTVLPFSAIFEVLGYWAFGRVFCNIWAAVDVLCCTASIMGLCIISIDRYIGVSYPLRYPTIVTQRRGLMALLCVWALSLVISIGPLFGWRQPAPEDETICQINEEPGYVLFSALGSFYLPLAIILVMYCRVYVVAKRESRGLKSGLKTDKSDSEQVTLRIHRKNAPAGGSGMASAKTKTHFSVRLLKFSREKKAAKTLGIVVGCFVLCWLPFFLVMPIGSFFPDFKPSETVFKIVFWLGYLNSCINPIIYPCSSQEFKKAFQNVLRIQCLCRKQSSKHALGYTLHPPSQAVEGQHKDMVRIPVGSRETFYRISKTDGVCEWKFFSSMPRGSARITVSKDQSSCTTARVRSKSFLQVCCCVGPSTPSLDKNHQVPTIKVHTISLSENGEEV
UniProt P25100, whole entry: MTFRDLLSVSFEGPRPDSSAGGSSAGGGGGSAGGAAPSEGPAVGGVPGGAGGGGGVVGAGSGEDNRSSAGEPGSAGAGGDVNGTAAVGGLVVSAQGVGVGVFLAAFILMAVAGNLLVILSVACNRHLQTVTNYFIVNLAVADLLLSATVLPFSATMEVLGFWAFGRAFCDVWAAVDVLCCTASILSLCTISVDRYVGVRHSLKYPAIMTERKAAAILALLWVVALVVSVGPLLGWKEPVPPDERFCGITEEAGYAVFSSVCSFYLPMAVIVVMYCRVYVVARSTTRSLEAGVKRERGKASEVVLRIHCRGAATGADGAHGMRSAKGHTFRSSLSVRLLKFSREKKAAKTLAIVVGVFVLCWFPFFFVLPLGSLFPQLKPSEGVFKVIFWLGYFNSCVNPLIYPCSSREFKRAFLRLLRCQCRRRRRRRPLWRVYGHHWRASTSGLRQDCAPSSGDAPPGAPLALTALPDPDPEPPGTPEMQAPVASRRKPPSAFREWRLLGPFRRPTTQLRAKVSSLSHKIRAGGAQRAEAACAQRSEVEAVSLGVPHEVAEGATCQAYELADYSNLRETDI
UniProt P13945, whole entry: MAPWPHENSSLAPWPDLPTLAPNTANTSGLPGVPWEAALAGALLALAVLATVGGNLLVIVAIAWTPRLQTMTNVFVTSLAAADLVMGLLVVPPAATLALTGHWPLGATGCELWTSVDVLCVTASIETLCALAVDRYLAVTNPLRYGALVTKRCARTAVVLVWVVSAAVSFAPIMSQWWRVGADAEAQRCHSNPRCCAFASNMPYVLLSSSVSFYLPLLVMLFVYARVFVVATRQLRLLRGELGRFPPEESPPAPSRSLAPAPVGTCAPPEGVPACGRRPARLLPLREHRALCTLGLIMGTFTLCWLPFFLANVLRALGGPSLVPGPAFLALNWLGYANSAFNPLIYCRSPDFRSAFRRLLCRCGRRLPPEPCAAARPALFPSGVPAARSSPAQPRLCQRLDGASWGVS
UniProt P08588, whole entry: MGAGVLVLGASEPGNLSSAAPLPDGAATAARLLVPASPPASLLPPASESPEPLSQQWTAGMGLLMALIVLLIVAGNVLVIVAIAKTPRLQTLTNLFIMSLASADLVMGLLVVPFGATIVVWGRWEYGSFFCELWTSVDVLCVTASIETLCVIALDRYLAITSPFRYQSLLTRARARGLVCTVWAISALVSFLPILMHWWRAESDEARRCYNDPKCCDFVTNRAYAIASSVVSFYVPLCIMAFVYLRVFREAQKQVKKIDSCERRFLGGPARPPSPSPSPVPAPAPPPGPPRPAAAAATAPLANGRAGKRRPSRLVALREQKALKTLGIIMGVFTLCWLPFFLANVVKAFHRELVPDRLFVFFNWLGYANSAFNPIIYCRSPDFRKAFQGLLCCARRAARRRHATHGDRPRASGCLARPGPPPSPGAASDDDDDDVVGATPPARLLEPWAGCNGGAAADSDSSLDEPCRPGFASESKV
UniProt P35368, whole entry: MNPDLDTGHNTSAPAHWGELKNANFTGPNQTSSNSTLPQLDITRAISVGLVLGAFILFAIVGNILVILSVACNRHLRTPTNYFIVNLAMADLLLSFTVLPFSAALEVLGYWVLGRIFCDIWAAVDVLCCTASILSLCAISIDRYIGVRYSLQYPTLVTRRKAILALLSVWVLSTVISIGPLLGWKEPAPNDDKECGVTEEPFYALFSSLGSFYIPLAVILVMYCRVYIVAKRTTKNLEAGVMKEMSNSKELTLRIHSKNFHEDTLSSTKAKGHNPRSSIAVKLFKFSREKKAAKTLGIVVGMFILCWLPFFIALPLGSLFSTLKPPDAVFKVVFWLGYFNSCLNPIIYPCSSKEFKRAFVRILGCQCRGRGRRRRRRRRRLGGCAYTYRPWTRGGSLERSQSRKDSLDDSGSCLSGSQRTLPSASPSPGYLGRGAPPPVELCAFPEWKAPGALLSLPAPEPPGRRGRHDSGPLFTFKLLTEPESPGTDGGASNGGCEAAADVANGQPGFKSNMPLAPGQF

Data set [1] deals with human α1A adrenergic receptor (Homo sapiens, UniProt P35348). Kind of data set: Test Example 4: human α1A adrenergic receptor agonist activity (Ca flux, Fura-2, transfected HEK293 cells). The data set is classed as cell-based. The conditions noted are these: maximum response to norepinephrine taken as 100%.
Data set [2] concerns the target human α1D adrenergic receptor (Homo sapiens, UniProt P25100). Kind of data set: Test Example 6: human α1D adrenergic receptor agonist activity (SRE-luciferase, HEK293 cells). The data set is classed as cell-based. The conditions noted are these: phenylephrine as positive control. The protocol: Measurement of Human α1D Adrenergic Receptor Agonist Activity
(§1) The measurement of the human α1D adrenergic receptor agonist activity is carried out using HEK293 cells transiently co-transfected with pcDNA3.1 (manufactured by Invitrogen, Inc.) to which human α1D gene has been inserted, and with a luciferase gene-expressing vector, pSRE-Luc. plasmid (manufactured by Stratagene Corp.). These cells are seeded onto a 96-well plate at a concentration of 40,000 cells/well, and are cultured overnight in DMEM medium containing 2% fetal bovine serum, under the conditions of 37° C. and 5% CO2. A test compound is dissolved in DMSO and then is diluted with the medium, and this dilution is added to the cells to react for several hours. […]. After 30 minutes, the luminescence value is measured. Maximum response to phenylephrine as a positive control is taken as 100%, and the maximum response ratio of each test compound is calculated as the Intrinsic Activity [I.A. (%)].

Data set [3] relates to rat under pentobarbital anesthesia. Kind of data set: Test Example 9: effect on blood pressure and heart rate of rat under pentobarbital anesthesia. The data set is classed as in vivo. The conditions noted are these: 3 mg/kg intravenous, male SD rat, average value ± standard error of largest change.
In data set [4] the target is T1, human β3 adrenergic receptor (Homo sapiens, UniProt P13945). Put plainly: Test Example 1-A: human β3 adrenergic receptor agonist activity (cAMP EIA, transfected CHO cells, 24-well). It counts as cell-based. The conditions noted are these: Table 1; maximum response to isoproterenol taken as 100%.
Data set [5] has as its target T2, human β1 adrenergic receptor (Homo sapiens, UniProt P08588). Kind of data set: Test Example 2-A: human β1 adrenergic receptor agonist activity (method of Test Example 1-A). It counts as cell-based. The conditions noted are these: Table 1.
Data set [6] addresses human α1B adrenergic receptor (Homo sapiens, UniProt P35368). Kind of data set: Test Example 5: human α1B adrenergic receptor agonist activity (SRE-luciferase, HEK293 cells). It counts as cell-based. The note with it: phenylephrine as positive control. The protocol:
Measurement of Human α1B Adrenergic Receptor Agonist Activity
as §1, with “α1B” for “α1D”, “inserted” for “inserted,”, “and” for “and with”

In data set [7] the target is T2, human β1 adrenergic receptor. Put plainly: Test Example 2-B: human β1 adrenergic receptor agonist activity (method of Test Example 1-B). The data set is classed as cell-based. The conditions noted are these: Table 2.
Data set [8] has as its target T1, human β3 adrenergic receptor. Kind of data set: Test Example 1-B: human β3 adrenergic receptor agonist activity (cAMP-Screen kit, transfected CHO cells, 96-well). The data set is classed as cell-based. The note with it: read-out: β3 receptor EC50, Table 2.

As usually defined, the EC50 is the midpoint of the concentration-response curve. With `COc1n[nH]c2cc(OCCNC[C@H](O)c3cccc(NS(C)(=O)=O)c3)ccc12`, the “α1A receptor I.A.” value in data set [1] (Table 1) and in data set [1] (Table 2) was 60% each time. Moreover, in data set [2], the α1D agonist activity entry is recorded as “did not have α1D agonist activity”. The “increase in MBP (%)” value in data set [3] came to 12.8 ± 4.4%. The “β3 receptor I.A.” value in data set [4] was 64%. Moreover, the “β1 receptor EC50” value in data set [5] and in data set [7] was “a)” in each case. In addition, the α1B agonist activity entry in data set [6] is “did not have α1B agonist activity”. Further, in data set [8], the EC50 came to 40 nM.

Consider `Cc1n[nH]c2cc(OCCNC[C@H](O)c3ccc(Cl)c(NS(C)(=O)=O)c3)ccc12`, for which the “increase in MBP (%)” value in data set [3] turned out to be 12.6 ± 4.1%.
